Experiment [1] addresses Delta-type opioid receptor (Homo sapiens) (UniProt P41143). Briefly: Agonist activity at human delta opioid receptor expressed in CHO membrane assessed as stimulation of [35S]GTP-gamma-S binding relative to SNC80.
Experiment [2] deals with Kappa-type opioid receptor (Homo sapiens) (UniProt P41145). The experiment is described as follows: Agonist activity at human kappa opioid receptor expressed in CHO membrane assessed as stimulation of [35S]GTP-gamma-S binding relative to dynorphin A.

By UniProt entry, the sequences of proteins in these tests, tags left out.
UniProt P41143, whole entry: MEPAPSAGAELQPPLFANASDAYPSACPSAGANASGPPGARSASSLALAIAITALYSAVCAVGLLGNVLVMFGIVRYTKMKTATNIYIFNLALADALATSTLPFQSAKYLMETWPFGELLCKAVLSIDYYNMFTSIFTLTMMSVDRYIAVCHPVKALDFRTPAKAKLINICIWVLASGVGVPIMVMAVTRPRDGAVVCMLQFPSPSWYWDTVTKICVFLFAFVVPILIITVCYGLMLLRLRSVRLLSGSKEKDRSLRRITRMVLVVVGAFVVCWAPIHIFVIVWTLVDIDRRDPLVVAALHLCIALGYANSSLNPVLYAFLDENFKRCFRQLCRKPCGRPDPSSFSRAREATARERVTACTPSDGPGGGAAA
UniProt P41145, whole entry: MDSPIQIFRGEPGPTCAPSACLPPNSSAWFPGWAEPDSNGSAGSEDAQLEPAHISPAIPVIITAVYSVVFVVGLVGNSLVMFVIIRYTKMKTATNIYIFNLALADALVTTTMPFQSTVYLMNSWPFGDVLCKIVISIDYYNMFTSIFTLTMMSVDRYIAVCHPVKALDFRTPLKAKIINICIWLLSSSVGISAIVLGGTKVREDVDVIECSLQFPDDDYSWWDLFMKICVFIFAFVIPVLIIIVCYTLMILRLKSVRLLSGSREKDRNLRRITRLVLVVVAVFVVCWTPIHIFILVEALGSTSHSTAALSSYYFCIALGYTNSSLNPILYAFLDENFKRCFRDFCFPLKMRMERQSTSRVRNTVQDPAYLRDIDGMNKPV

As for `CO[C@]12C(O)C[C@@]3(C[C@@H]1[C@@H](C)O)[C@H]1Cc4ccc(O)c5c4[C@@]3(CCN1C)[C@H]2O5` (stereo partly drawn), the Activity in experiment [1] was found to be 1.3%; in experiment [2], 0.75%.
For `CO[C@]12CC(O)[C@@]3(C[C@@H]1[C@H](C)O)[C@H]1Cc4ccc(O)c5c4[C@@]3(CCN1C)[C@H]2O5` (stereo partly drawn), the Activity came to 1.4% in experiment [1] and 0.25% in experiment [2].
Consider `CO[C@]12C(O)C[C@@]3(C[C@@H]1[C@H](C)O)[C@H]1Cc4ccc(O)c5c4[C@@]3(CCN1C)[C@H]2O5` (stereo partly drawn), for which the Activity turned out to be 1.2% in experiment [1] and 0.55% in experiment [2].
As to `CO[C@]12CC(O)[C@@]3(C[C@@H]1[C@@H](C)O)[C@H]1Cc4ccc(O)c5c4[C@@]3(CCN1C)[C@H]2O5` (stereo partly drawn), the Activity in experiment [1] amounted to 1.4%; in experiment [2] it was 0.47%.

The values above are taken from ChEMBL document CHEMBL1149641, “Functionalization of the 6,14-bridge of the orvinols. Part 3: preparation and pharmacological evaluation of 18- and 19-hydroxyl substituted orvinols” (2007).
